Source: patent US20250099599

What was measured:
[1] = tested on: M + His6_Chx^197_SAAG_G3SG3SG3S_hGH

furin (furin protease, purified enzyme added in vitro)
cleavage by furin followed by mass spectrometry and ion chromatogram (Exenatide): exenatide incubated with furin remained intact | cleavage by furin followed by mass spectrometry (0, 5, 24 h at 30 C) [1]: After 5 hrs and 24 hrs, the Chx^197_SAAG-N3-HGH construct was cleaved by furin
